According to paper PMC4589779 (Scientific Reports, 2015):

System: bile salt export protein (BSEP) mRNA
Settings: HepG2 cells, 25 μM and 50 μM in competition with CDCA (50 μM), 6 h
Description: Quantification of the expression of FXR target genes in non-transfected cells offers the least artificial way to characterize the activity of a FXR ligand in vitro. […] As investigated genes we selected the direct FXR target genes bile salt export protein (BSEP) and small hetero-dimer partner (SHP) which allows a specific conclusion whether a FXR-dependent effect is present. […] We then quantified the mRNA of FXR target genes BSEP and SHP by qRT-PCR.
HepG2 cells were seeded in DMEM high glucose, supplemented with 10% FCS, SP (1 mM), penicillin (100 U/mL) and streptomycin (100 μg/mL) at 37 °C and 5% CO2 in 6-well plates (2 · 10^6 per well). 24 h after seeding, medium was changed to MEM, supplemented with 1% charcoal-stripped FCS, penicillin (100 U/mL), streptomycin (100 μg/mL) and L-glutamine (2 mM). After additional 24 h, medium was changed again to MEM, now additionally containing 0.1% DMSO and the respective test compounds or 0.1% DMSO alone as untreated control. Cells were incubated with the test compounds for 6 h, harvested, washed with cold phosphate buffered saline (PBS) and then directly used for RNA extraction. […]
FXR target gene expression was evaluated by quantitative PCR analysis with a StepOnePlusTM System (Life Technologies) using PowerSYBRGreen (Life Technologies; 12.5 μL per well) and the following primers[17] […] The expression was quantified by the comparative ΔΔCt method.

O=C(O)Cc1ccccc1Nc1c(Cl)cccc1Cl [diclofenac, diclofenac sodium]
antagonistic effect on BSEP expression: did not observe any antagonistic effect
